Test [1] deals with GST-fusion PHF1 Tudor domain (wild type) (human) (UniProt O43189). Put plainly: pull-down.
The target of test [2] is PHF1 Tudor domain (wild type, GST tag cleaved) (human) (UniProt O43189). Put plainly: NMR titration.

Protein sequences, listed by entry. Tags and fused reporters are not part of them. Lines headed by an entry give the natural chain unless they say otherwise; changes in a name come on top.
UniProt O43189: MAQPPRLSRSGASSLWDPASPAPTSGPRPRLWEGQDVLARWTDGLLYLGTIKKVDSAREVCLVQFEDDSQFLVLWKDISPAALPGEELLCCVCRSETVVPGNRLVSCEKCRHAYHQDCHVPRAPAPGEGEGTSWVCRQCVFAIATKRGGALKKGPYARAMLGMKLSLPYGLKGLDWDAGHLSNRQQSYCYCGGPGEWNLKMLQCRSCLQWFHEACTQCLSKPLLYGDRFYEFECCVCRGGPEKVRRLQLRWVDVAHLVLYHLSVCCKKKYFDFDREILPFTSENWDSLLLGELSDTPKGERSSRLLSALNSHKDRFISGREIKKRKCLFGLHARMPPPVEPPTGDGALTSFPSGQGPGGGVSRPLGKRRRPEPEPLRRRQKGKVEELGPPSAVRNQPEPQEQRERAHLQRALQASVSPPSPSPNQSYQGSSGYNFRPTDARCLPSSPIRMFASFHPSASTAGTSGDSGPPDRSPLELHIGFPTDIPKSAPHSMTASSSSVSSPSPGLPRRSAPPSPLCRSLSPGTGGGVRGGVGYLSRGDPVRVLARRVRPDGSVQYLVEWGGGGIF

As for “H3KC36me3-nucleosome core particle (complex)”, in test [1], the dissociation constant Kd came to 1300 nM. Besides, in test [2], the average decrease in resonance intensity at a 1:1 molar ratio was 80%.

The Kd is the free concentration of one partner at which half of the binding sites on the other are occupied at equilibrium, for simple one-to-one binding. A high value points to lower affinity.

The values are drawn from paper PMC4007151 (Nature communications, 2013).
